The text below walks through data of paper PMC9099060 (Dose-Response, 2022).

By UniProt entry, the sequences of proteins in these tests, tags left out.
UniProt P27487, whole entry: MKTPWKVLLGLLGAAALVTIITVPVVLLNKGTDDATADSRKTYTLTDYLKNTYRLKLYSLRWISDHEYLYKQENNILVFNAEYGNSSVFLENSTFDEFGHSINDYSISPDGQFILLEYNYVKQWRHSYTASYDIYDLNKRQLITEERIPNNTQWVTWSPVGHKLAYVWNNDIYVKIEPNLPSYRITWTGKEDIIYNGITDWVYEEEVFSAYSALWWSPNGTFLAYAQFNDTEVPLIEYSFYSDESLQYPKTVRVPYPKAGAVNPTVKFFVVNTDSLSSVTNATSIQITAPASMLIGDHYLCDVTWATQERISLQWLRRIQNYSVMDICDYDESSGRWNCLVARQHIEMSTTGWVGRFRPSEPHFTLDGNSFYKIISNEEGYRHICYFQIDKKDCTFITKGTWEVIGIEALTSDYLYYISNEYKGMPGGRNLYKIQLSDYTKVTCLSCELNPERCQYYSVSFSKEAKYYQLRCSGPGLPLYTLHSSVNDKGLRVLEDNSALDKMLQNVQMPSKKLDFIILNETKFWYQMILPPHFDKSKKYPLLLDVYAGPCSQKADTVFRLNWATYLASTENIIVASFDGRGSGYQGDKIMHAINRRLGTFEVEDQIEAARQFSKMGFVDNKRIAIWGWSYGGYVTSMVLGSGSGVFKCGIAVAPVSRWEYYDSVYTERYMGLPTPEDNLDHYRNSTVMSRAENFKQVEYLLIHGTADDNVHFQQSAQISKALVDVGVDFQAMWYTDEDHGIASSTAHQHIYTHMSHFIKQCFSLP

The target of assay [1] is T1, DPP-IV (Homo sapiens, UniProt P27487). Put plainly: Inhibitory kinetics study. Format: biochemical. Put shortly:
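Test compound was tested separately at 0.25 and 0.5 mg/mL, each against Gly-Pro-AMC at various concentrations (0–60 μM). Inhibition pattern was assigned from Lineweaver-Burk plots. Ki was obtained from a double-reciprocal plot of initial […] against substrate. Values are mean ± SD, n = 6.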

Assay [2] deals with T1, DPP-IV. Put plainly: In vitro inhibitory activity against DPP-IV. The assay is classed as biochemical.

The molecule `CC[C@H](C)[C@H](N)C(=O)N1CCC[C@H]1C(=O)N[C@H](C(=O)O)[C@@H](C)CC` [Diprotin A, reference compound] gave a Ki in assay [1] of 7.32 µM. In assay [2], this molecule gave a 50% inhibitory concentration (IC50) of 7.21 ± 0.021 µM.
